The entries are a selection whose mix differs from that of the whole data set. Active and inactive are the calls of the source.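 The calls were made as follows: active = mean inhibition across replicates at least about 35%, with every replicate also reaching that limit (limit read from the data); inconclusive = only one of the two criteria met; inactive = neither criterion met.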
The compounds below were run against Caspase-6 (Homo sapiens) (UniProt P55212) (assay: human caspase-6 inhibitors, primary screen, biochemical, VEID-R110 fluorescence, single point, set 2 (AID 686996;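 also: 0% = median of neutral control wells and 100% = no fluorescence left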)). Conditions: purified caspase-6, Z-VEID-R110 cleavage fluorescence; at 12.5 µM; active compounds read high.

Chains of the proteins cited; added tags and fusions are not shown. Residues count along the entry.
UniProt P55212, 24-179 limits assumed: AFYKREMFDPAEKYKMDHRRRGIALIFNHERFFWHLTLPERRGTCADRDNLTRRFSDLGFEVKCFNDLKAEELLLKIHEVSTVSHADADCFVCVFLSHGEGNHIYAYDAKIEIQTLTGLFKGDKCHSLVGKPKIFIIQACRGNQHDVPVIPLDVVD
UniProt P55212, 194-293 limits assumed: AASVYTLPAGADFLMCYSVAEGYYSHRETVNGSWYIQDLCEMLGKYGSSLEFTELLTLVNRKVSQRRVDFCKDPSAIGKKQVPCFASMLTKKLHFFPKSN

Row | Compound | inhibition
1 | CCC(=O)N(c1ccccc1)C1(COC)CCN(CCn2nnn(CC)c2=O)CC1 | inactive: -1.58%
2 | CCC(=O)N(c1ccccc1)C1(COC)CCN(CCc2cccs2)CC1 | inactive: -3.73%
